From patent publication US20160368960A1

Target: rat GLP-1-R (rat) (UniProt P32301)
Experiment: cell-based or functional assay

Semaglutide (peptide)
EC50 (nM), cAMP production in INS1 832-3 cells: 5.8 nM
